Measured values published in ChEMBL document CHEMBL1122654, “Phosphorus analogues of gamma-aminobutyric acid, a new class of anticonvulsants” (J Med Chem, 1984).

How the values were obtained:
Mus musculus [1] = assay: In vivo neurotoxicity at 600 mg/kg, number of animals exhibiting neurotoxicity in the rotarod test / number of animals tested at 0.5 hr
Mus musculus [2] = assay: In vivo neurotoxicity at 600 mg/kg, number of animals exhibiting neurotoxicity in the rotarod test / number of animals tested 4 hr

With `CCOP(=O)(NCCN)OCC` the Toxicity (Mus musculus [1]) was “Partially active” and the Toxicity (Mus musculus [2]) was “Not Active”.
